# Measurements reported in ChEMBL document CHEMBL1156448, “Identification of an efficacy switch region in the ghrelin receptor responsible for interchange between agonism and inverse agonism” (J Biol Chem, 2007).
# The chains behind the UniProt entries cited, without tags or fusion partners.
# UniProt Q92847, whole entry: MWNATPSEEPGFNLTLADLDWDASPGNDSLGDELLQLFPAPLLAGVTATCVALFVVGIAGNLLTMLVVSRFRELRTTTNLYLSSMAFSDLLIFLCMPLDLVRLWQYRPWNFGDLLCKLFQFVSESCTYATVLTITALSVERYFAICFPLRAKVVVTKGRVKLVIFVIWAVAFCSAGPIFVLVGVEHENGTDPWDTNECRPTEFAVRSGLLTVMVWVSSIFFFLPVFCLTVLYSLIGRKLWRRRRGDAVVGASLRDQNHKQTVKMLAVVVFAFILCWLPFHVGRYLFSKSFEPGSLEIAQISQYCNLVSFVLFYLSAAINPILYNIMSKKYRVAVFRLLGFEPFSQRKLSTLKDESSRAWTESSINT
# What was measured:
# [1] = target: T1, Growth hormone secretagogue receptor type 1 (Homo sapiens, UniProt Q92847); test: Inverse agonist activity at human ghrelin receptor expressed in african green monkey COS7 cells assessed as constitutively stimulated inositol phosphate accumulation; format: functional, cell-based, COS-7
# [2] = target: T1, Growth hormone secretagogue receptor type 1; test: Displacement of [35S]MK677 from human ghrelin receptor expressed in african green monkey COS7 cells; format: cell-based, COS-7
compound,measurement,setting,value
CC(C)C[C@H](NC(=O)[C@H](CC(C)C)NC(=O)[C@@H](Cc1c[nH]c2ccccc12)NC(=O)[C@H](Cc1ccccc1)NC(=O)[C@@H](Cc1c[nH]c2ccccc12)NC(=O)[C@H](CCC(N)=O)NC(=O)[C@@H](Cc1ccccc1)NC(=O)[C@@H]1CCCN1C(=O)[C@H](CCCCN)NC(=O)[C@@H]1CCCN1C(=O)[C@H](N)CCCN=C(N)N)C(N)=O,IC50,[1],18 nM
same,IC50,[2],3.2 nM
